Amino acid sequences for entries named in this document (tags omitted).
UniProt P78527, whole entry: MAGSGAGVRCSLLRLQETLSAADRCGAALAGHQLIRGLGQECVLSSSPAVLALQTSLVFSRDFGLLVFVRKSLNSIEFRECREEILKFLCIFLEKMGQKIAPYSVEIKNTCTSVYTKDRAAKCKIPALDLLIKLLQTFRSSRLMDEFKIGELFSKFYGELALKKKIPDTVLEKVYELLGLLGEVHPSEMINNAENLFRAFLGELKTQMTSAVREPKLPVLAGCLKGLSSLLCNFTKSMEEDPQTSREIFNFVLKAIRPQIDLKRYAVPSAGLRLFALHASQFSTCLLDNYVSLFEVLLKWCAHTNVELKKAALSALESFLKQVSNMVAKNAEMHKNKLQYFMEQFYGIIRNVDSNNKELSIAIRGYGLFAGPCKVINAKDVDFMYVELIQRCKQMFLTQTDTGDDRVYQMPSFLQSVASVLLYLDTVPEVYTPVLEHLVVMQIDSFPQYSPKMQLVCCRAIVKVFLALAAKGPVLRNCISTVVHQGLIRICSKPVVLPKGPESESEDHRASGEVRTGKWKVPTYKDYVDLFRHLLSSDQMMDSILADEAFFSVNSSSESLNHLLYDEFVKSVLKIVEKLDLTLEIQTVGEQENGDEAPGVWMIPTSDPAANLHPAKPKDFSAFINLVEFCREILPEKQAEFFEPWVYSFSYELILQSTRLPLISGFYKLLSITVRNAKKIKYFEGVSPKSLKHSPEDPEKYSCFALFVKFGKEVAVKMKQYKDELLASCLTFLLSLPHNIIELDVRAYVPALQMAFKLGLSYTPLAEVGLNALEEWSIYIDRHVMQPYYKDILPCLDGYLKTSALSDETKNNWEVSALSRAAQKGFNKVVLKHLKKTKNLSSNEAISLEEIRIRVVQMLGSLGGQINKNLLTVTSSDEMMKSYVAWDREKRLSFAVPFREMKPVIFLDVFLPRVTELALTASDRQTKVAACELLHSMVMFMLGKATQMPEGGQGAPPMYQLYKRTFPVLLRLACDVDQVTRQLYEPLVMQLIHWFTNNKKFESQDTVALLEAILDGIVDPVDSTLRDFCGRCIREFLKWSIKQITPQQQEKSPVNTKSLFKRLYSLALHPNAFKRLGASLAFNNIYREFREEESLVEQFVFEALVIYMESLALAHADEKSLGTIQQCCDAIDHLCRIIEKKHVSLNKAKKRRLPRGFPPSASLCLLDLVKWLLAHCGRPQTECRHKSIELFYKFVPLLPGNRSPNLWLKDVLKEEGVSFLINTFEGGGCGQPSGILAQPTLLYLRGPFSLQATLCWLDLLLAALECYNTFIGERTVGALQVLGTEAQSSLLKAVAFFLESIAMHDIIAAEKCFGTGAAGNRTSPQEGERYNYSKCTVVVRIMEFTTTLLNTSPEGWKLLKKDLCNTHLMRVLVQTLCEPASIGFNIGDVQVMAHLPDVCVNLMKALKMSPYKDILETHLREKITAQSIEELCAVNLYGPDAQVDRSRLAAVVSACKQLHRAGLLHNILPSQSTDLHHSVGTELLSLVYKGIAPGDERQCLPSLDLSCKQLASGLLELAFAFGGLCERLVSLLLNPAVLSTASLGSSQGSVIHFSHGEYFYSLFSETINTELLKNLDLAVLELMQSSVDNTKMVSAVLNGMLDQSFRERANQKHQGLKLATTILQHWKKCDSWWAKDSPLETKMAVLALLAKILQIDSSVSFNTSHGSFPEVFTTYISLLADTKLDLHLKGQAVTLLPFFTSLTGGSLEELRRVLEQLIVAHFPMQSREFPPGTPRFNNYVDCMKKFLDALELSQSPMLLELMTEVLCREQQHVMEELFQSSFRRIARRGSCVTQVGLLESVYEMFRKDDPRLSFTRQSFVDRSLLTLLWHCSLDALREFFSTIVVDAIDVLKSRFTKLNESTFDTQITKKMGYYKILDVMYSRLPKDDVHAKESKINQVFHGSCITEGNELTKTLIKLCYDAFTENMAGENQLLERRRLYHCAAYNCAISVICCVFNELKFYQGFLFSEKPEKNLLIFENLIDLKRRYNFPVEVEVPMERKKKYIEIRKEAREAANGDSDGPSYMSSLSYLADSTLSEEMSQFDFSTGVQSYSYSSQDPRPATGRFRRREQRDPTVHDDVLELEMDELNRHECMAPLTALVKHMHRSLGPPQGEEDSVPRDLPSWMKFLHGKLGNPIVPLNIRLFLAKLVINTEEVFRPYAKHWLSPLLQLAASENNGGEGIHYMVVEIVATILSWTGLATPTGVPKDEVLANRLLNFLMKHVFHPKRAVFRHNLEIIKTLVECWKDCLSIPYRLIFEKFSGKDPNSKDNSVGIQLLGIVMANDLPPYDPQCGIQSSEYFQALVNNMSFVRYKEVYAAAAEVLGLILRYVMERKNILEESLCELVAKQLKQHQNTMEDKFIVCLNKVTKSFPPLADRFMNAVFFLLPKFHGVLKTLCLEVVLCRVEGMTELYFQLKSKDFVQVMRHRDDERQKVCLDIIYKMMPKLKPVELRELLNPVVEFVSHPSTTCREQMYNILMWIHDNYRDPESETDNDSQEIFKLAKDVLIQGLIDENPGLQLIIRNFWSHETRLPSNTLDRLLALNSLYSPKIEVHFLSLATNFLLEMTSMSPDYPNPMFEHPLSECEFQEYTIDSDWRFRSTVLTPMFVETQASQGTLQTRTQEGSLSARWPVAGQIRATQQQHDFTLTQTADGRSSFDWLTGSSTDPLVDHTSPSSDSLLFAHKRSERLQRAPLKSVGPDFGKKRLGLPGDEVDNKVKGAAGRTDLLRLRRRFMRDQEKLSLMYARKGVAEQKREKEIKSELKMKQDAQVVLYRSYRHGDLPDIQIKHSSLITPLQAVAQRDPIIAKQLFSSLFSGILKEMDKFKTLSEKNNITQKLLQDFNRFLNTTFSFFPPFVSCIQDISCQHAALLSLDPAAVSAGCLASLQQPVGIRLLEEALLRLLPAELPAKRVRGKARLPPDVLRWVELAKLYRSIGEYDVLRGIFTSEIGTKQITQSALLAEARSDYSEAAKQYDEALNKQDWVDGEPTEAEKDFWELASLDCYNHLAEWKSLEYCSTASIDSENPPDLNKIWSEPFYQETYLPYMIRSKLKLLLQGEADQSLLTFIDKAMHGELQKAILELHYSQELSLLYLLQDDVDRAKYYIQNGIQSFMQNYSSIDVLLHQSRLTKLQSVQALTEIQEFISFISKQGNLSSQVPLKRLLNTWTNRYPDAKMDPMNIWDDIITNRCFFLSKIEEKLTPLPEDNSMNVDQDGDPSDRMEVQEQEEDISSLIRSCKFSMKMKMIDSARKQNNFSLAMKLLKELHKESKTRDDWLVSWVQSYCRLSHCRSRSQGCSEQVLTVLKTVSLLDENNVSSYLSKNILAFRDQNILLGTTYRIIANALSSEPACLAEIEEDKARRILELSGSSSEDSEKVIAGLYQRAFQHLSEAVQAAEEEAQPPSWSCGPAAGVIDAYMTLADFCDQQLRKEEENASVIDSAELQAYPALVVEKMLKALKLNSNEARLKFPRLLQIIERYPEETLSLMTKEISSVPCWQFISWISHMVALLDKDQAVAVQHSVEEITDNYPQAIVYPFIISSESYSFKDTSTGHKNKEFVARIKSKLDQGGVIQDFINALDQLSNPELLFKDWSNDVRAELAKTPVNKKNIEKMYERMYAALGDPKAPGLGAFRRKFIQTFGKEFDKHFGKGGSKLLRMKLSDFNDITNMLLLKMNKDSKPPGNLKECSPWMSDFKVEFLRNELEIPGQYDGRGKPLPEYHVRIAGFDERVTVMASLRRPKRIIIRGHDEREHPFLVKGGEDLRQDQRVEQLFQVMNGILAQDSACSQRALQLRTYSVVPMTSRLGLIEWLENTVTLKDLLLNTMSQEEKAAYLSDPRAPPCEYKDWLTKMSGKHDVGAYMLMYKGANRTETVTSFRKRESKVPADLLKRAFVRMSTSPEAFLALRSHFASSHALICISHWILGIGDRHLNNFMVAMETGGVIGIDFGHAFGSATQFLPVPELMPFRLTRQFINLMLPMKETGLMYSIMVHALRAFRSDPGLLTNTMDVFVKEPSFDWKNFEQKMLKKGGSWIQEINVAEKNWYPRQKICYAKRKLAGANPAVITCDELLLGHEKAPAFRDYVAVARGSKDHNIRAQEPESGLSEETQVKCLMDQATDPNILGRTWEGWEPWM
UniProt P13010, whole entry partner: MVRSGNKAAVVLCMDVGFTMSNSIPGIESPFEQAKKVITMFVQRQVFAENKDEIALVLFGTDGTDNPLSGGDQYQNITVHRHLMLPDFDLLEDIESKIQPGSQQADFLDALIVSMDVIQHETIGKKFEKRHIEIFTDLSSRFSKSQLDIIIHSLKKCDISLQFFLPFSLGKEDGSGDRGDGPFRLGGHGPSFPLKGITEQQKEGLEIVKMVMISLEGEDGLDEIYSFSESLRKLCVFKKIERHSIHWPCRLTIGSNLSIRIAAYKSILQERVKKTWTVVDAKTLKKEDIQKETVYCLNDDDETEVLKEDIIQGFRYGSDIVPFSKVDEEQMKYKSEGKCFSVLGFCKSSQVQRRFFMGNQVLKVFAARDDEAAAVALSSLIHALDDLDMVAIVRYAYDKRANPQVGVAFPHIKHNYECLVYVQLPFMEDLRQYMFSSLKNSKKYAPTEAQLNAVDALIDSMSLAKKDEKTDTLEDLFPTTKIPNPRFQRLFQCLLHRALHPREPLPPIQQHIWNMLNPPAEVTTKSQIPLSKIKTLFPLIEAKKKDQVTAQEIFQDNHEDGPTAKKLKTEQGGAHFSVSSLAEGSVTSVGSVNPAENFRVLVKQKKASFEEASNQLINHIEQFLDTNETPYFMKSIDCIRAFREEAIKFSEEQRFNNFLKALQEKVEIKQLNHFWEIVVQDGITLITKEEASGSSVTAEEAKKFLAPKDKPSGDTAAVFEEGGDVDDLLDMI
UniProt P12956, whole entry partner: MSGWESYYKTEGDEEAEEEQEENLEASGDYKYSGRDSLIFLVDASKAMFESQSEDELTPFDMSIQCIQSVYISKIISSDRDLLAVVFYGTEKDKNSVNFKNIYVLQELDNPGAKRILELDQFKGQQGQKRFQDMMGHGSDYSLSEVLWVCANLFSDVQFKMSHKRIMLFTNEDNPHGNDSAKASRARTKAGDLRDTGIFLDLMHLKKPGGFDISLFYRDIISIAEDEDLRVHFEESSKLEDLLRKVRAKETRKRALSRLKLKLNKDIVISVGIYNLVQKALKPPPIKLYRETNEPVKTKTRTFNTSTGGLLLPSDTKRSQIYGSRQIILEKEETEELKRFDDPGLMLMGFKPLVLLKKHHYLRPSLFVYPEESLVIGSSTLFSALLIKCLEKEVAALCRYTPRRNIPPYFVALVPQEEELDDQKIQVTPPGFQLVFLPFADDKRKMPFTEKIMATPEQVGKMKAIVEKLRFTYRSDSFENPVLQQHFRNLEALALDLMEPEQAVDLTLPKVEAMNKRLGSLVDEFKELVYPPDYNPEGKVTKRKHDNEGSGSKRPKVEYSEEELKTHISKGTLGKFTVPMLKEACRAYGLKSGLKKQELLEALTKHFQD

In US20110130386A1, “DNA-PK INHIBITORS” (priority 2008, published 2011):

Biological target: Mammalian DNA-PK (Homo sapiens, UniProt P78527)
Assay: DNA-PK inhibition assay (ELISA of p53 Ser15 phosphorylation of GST-p53N66)
Type: biochemical, Mammalian (isolated from HeLa cell nuclear extract)
Settings: read-out: mean IC50; DNA-PK from HeLa nuclear extract; mean value

Row | Structure (SMILES) | IC50 [nM]
1 | O=c1cc(N2CCOCC2)oc2c(-c3ccc(CN4CCCCC4F)c4c3sc3ccccc34)cccc12 (stereo not drawn) | 307
2 | O=c1cc(N2CCOCC2)oc2c(-c3ccc(CN4CCCCC4O)c4c3sc3ccccc34)cccc12 (stereo not drawn) | 127
3 | O=C1CNCCN1Cc1ccc(-c2cccc3c(=O)cc(N4CCOCC4)oc23)c2sc3ccccc3c12 | 48.5
